Experimental data published in patent US20220089743A1 (Chugai, published 2022).

What was measured:
[1] = biological target: HLA-DQ2.5 on IHW09023 cells loaded with 33 mer gliadin peptide (human; wheat); experiment: cell-based or functional assay
[2] = biological target: HLA-DQ2.5 on IHW09023 cells loaded with omega1/2 gliadin peptide (human; wheat); experiment: cell-based or functional assay

Binder | IC50, α1a gliadin TCR, 250 nM 33mer gliadin [1] [ng/mL] | IC50, ω2 gliadin TCR, 250 nM ω1/2 gliadin [2] [ng/mL]
DQN0344H0976/L0591//DQN0385H1270/L0681-F6 (bispecific antibody) heavy 1: QVQLVESGGGVVQPGGSLRLSCAASGFTFSSAYWMVWVRQAPGQGLEWMGAVYGGSDTTYYAKWTEGRFTISRDTSKNTLYLQMNSLRAEDTAVYYCAREPLNYYYYGELNLWGQGTLVTVSSASTKGPSVFPLAPSSKSTSGGTAALGCLVKDYFPEPVTVSWNSGALTSGVHTFPAVLKSSGLYSLSSVVTVPSSSLGTQTYICNVNHKPSNTKVDKRVEPKSCDKTHTCPPCPAPELRRGPSVFLFPPKPKDTLMISRTPEVTCVVVDVSHEDPEVKFNWYVDGVEVHNAKTKPREEQYNSTYRVVSVLTVLHQDWLNGKEYKCKVSNKALPAPIEKTISKAKGQPREPQVYTLPPSREEMTKNQVSLTCLVKGFYPSDIAVEWESNGQPENNYKTTPPYLDSDGSFFLYSKLTVDKSRWQEGNVFSCSVLHEALHAHYTREELSLSP light 1: DIQMTQSPSSLSASVGDRVTITCQATEEIYSGLAWYQQKPGKAPKLLIYYVSTLYEGIPARFSGSGSGTDFTLTISSLEPEDFAVYYCQTYEDVSAVTFGQGTKVEIKRTVAAPSVFIFPPSDEQLKSGTAEVVCLLNNFYPREAKVQWKVDNALQSGNSEESVTEQDSKDSTYSLSSTLTLSKADYEKHKVYACEVTHQGLSSPVTKSFNRGEC heavy 2: QVQLVESGGGVVQPGRSLRLSCAASGFTFSEWYFMSWVRQAPGKGLEWVASIDTGSGSIDYAEWVEGRFTISRDNSKNTLYLQMNSLRAEDTAVYYCARDIGIDYNFWGPGTLVTVSSASTKGPSVFPLAPSSKSTSGGTAALGCLVEDYFPEPVTVSWNSGALTSGVHTFPAVLESSGLYSLSSVVTVPSSSLGTKTYICNVNHKPSNTKVDKRVEPKSCDKTHTCPPCPAPELRRGPSVFLFPPKPKDTLMISRTPEVTCVVVDVSHEDPEVKFNWYVDGVEVHNAKTKPREEQYNSTYRVVSVLTVLHQDWLNGKEYKCKVSNKALPAPIEKTISKAKGQPREPQVYTLPPSRKEMTKNQVSLTCLVKGFYPSDIAVEWESNGQPENNYKTTPPYLDSDGSFFLYSKLTVDKSRWQQGNVFSCSVLHEALHAHYTRKELSLSP light 2: DIQMTQSPSSLSASVGDRVTITCQTTQSISSYLNWYQQKPGQPPKLLIYYASTKAEGIPARFSGSGLGTDFTLTISSLEPEDFAVYYCHYGISKVSFGQGTKVEIKRTVAAPSVFIFPPSDEQLKSGTAKVVCLLNNFYPREAKVQWKVDNALQSGNSKESVTEQDSKDSTYSLSSTLTLSKADYEKHKVYACEVTHQGLSSPVTKSFNRGEC | 0.58 | –
DQN0344H1013/L0620//DQN0385H1521/L0605-F6 (bispecific antibody) heavy 1: QVQLVESGGGVVQPGRSLRLSCAASGFTFSSAYWMVWVRQAPGQGLEWMGAVYGGSDTTYYAKWTEGRFTISRDTSKNTLYLQMNSLRAEDTAVYYCAREPLNYYYYGELNVWGQGTLVTVSSASTKGPSVFPLAPSSKSTSGGTAALGCLVKDYFPEPVTVSWNSGALTSGVHTFPAVLKSSGLYSLSSVVTVPSSSLGTQTYICNVNHKPSNTKVDKRVEPKSCDKTHTCPPCPAPELRRGPSVFLFPPKPKDTLMISRTPEVTCVVVDVSHEDPEVKFNWYVDGVEVHNAKTKPREEQYNSTYRVVSVLTVLHQDWLNGKEYKCKVSNKALPAPIEKTISKAKGQPREPQVYTLPPSREEMTKNQVSLTCLVKGFYPSDIAVEWESNGQPENNYKTTPPYLDSDGSFFLYSKLTVDKSRWQEGNVFSCSVLHEALHAHYTREELSLSP light 1: DIQMTQSPSSLSASVGDRVTITCQATENIYSGLAWYQQKPGKAPKLLIYYVSTLAYGIPARFSGSGSGTDFTLTISSLEPEDFAVYYCQTYEDVSAVTFGQGTKVEIKRTVAAPSVFIFPPSDEQLKSGTAEVVCLLNNFYPREAKVQWKVDNALQSGNSEESVTEQDSKDSTYSLSSTLTLSKADYEKHKVYACEVTHQGLSSPVTKSFNRGEC heavy 2: QVQLVESGGGVVQPGRSLRLSCAASGFTFESWYFMSWVRQAPGKGLEWVASIDTGSGSIDYAEWVEGRFTISRDNSKNTLYLQMNSLRAEDTAVYYCARDIGIDYNFWGPGTLVTVSSASTKGPSVFPLAPSSKSTSGGTAALGCLVEDYFPEPVTVSWNSGALTSGVHTFPAVLESSGLYSLSSVVTVPSSSLGTKTYICNVNHKPSNTKVDKRVEPKSCDKTHTCPPCPAPELRRGPSVFLFPPKPKDTLMISRTPEVTCVVVDVSHEDPEVKFNWYVDGVEVHNAKTKPREEQYNSTYRVVSVLTVLHQDWLNGKEYKCKVSNKALPAPIEKTISKAKGQPREPQVYTLPPSRKEMTKNQVSLTCLVKGFYPSDIAVEWESNGQPENNYKTTPPYLDSDGSFFLYSKLTVDKSRWQQGNVFSCSVLHEALHAHYTRKELSLSP light 2: DIQMTQSPSSLSASVGDRVTITCQTTQSISSYLNWYQQKPGQPPKLLIYYASTKAEGIPARFSGSGSGTDFTLTISSLEPEDFAVYYCHYGISKVSFGQGTKVEIKRTVAAPSVFIFPPSDEQLKSGTAKVVCLLNNFYPREAKVQWKVDNALQSGNSKESVTEQDSKDSTYSLSSTLTLSKADYEKHKVYACEVTHQGLSSPVTKSFNRGEC | – | 0.19
